The source of these data is US20240124551A1 (REPLAY, published 2024).

Series [1] addresses SYNC4-1. As to the kind of experiment: thermal stability assay (SYPRO orange melt), 5 µM, FIG. 13.
The target in series [2] is SYNC4-1. As to the kind of experiment: thermal stability assay (SYPRO orange melt), 5 µM; SYNC4-1 alone Tm 42.6 and 57.2 ° C.

B1: KIR2DL2 (receptor, UniProt P43627 22-245, looked up)
chain: HEGVHRKPSLLAHPGRLVKSEETVILQCWSDVRFEHFLLHREGKFKDTLHLIGEHHDGVSKANFSIGPMMQDLAGTYRCYGSVTHSPYQLSAPSDPLDIVITGLYEKPSLSAQPGPTVLAGESVTLSCSSRSSYDMYHLSREGEAHECRFSAGPKVNGTFQADFPLGPATHGGTYRCFGSFRDSPYEWSNSSDPLLVSVIGNPSNSWPSPTEPSSKTGNPRHLH
In the case of B1, in series [1], the “Tm of the combination (shoulder)” value was found to be 57.6 ° C and the “Tm of the combination (single maximum)” value was 58.8 ° C. For the same protein, in series [2], the “Tm of the combination (first maximum)” value worked out at 54.8 ° C and the “Tm of the combination (second maximum)” value is 57.4 ° C.
